The values that follow are results of earlier work, collected in PMC8224985 (European journal of medicinal chemistry, 2020).

This series has as its target SphK2. To be noted: read-out: SphK2 Ki; cited from earlier work.

In the case of `CCCCCCCCc1ccc(-c2noc([C@@H]3CCCN3C(=N)N)n2)cc1` [SLR080811], the Ki is 1300 nM.
